Columns and labels:
Cricetulus griseus = species: Cricetulus griseus; assay: Evaluated for hypersensitivity factor (HF) (HF = IC50 AA8 / IC50 UV-4) values are intra experiment ratios; format: functional
[1] = Evaluated for ratio of CT10 value. (CT10 = aerobic CT10 / hypoxic CT10)
UV-4 = assay: Evaluated for (CF10) the concentration x time to reduce the surviving fraction to 10% of controls in the stirred suspension assay (SSC) in UV-4 cells under aerobic conditions; conditions: Cricetulus griseus

ClCCN(CCCl)c1ccccc1
Ratio (Cricetulus griseus): 52 | Ratio [1]: 1 | CT10 (UV-4): 3 µM/h

— ChEMBL document CHEMBL1124922 (J Med Chem, 1990)
